# Apparent affinities of Ab-14 variants for a coronavirus HR2 peptide

All variants were tested on one target, the spike HR2 peptide PDVDLGDISGINAS (SARS-CoV-2).

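The parent was found by panning a naive human phage display library on the peptide. This is the validation round: designs drawn from the data on random variants, tested in the same kind of assay. Group labels follow the data file (Rand: our label for a block that the file lists under HC and that is probably the random mutants of the ten best first-round binders; En: ensemble of fine-tuned language models; HC: hill climbing; Gen: genetic algorithm; Gibbs: Gibbs sampling; a sequence that several methods proposed may carry one label only). The scFvs were displayed on barcoded MATa yeast, the peptide on MATalpha yeast. The frequency of each diploid, read from paired DNA barcodes, reflects how well the two displayed proteins bind. The ratio of observed to expected reads was calibrated, replicate by replicate, on BCL2-family standards whose Kd was known from biolayer interferometry. Mating was done six times.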

Parent: Ab-14, a human scFv built as VH, a 15-residue (Gly4Ser)3 linker, VL. Only the CDRs of the heavy chain vary.
VH: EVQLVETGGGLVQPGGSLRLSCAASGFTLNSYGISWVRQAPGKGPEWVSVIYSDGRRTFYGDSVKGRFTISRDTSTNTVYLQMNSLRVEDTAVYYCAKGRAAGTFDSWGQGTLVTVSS
VL: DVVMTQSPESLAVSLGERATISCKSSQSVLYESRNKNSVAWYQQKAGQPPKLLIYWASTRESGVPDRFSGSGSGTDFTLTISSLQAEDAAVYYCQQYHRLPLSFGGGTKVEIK

Each variant is given by its three heavy chain CDRs, as the data file delimits them; those of the parent are GFTLNSYGIS, VIYSDGRRTFYGDSVK, GRAAGTFDS. Variants here have more than six changes. Values are apparent Kd, the geometric mean of the replicates that gave a signal; lower means stronger binding. Where no diploid with the target was found in any replicate, the entry reads "not detected": below detection, most likely a poor binder, though not proof of it. Values of this round are not directly comparable with the first-round values of the same sequences. Nonspecific signal, from three strains lacking the peptide, appeared in 1% of pairings of all heavy chain designs, centred on 120 nM (5% of these signals below 7.0 nM); values are not corrected for it. The authors averaged sequences with at least three values out of six and counted those with two or fewer as poor binders. The parent sequence was in this pool as ten entries: three were never detected, three once, and four in most replicates, with averages from 2.2 nM to 240 nM.

| CDR-H1 | CDR-H2 | CDR-H3 | group | Kd (apparent) | replicates with signal |
|---|---|---|---|---|---|
| GFDLNEYGIS | VIYADGMRKFYADSVK | GQNAGTFDV | En_Gen | 320 pM | 6/6 |
| GFDLSEYGIS | VIYADGERANYVSNFK | GVLAGTFVL | En_Gibbs | 14 nM | 1/6 |
| GFDLNEYGIS | VIYADGMRTQYADDVK | GNVAGTFDV | En_Gen | 310 pM | 5/6 |
| GFDIQDYGIS | VIYADGLRTSVSNNFK | GIIAGTFTS | En_Gibbs | 910 pM | 6/6 |
| GFDLNEYGIS | VIYADGKRSAYADSVK | GNVAGTFDV | En_Gen | 280 pM | 6/6 |
| GFDLDEYGIS | VIYADGKRTAYIDSVK | GNVAGTFDQ | En_Gen | 520 pM | 6/6 |
| GFDLNEYGIS | VIYADGIRTFYADSVK | GNAAGTFDL | En_HC | 300 pM | 6/6 |
| GFDLDEYGIS | VIYADGQRVSYAQNVK | GLVGKLGVV | En_Gibbs | not detected | 0/6 |
| GFDLNEYGIS | VIYADGVRTFYVDSVK | GNTAGTFDV | En_HC | 490 pM | 6/6 |
| GFDLNEYGIS | VIYADGQRTAYADSVK | GANAGTFDM | En_Gen | 110 pM | 6/6 |
| GFDLNEYGIS | VIYADGRRTFYVDSVK | GVNAGTFDK | En_HC | 470 pM | 6/6 |
| GEDLMEYGIS | VIYADGIRFSYIDDVK | GNSTGFLDV | En_Gibbs | not detected | 0/6 |
| GFDLNEYGIS | VIYADGVRTAYTDSVK | GNQAGTFDM | En_Gen | 4.7 nM | 6/6 |
| GFNLNEYGIS | VIYADGRRKFYADSVK | GNTAGTFDV | En_HC | 250 pM | 6/6 |
| GFDLDEYGIS | VIYADGMRTAYADDVK | GQNAGTFDT | En_Gen | 280 pM | 6/6 |
| GFDLNEYGIS | VIYADGRRTFYADSVK | GSNAGTFNM | En_HC | 1.0 nM | 6/6 |
| GFDLDEYGIS | VIYADGMRTSYADSVK | GNQAGTFDV | En_Gen | 670 pM | 6/6 |
| GFDLNEYGIS | VIYADGMRTFYADDVK | GNVAGTFDV | En_Gen | 260 pM | 6/6 |
| GFDLNEYGIS | VIYADGRRTAYSDSVK | GEVAGTFVD | En_HC | 770 pM | 6/6 |
| GFDLDEYGIS | VIYADGMRTAYSDKVK | GEVAGTFDV | En_Gen | 2.4 nM | 6/6 |
| GFDLNEYGIS | VIYADGRRTFYADSVK | GNQAGTFID | En_HC | 810 nM | 1/6 |
| GFGLGEYGIS | VIYADGRRTFYKDDVK | GHFIVYGVD | En_Gibbs | not detected | 0/6 |
| GFDLEDYGIS | VIYADGRRTQYADSVK | GEVAGTFDL | En_HC | 2.9 nM | 6/6 |
| GFDIQDYGIS | VIYADGSRTAYVNSVK | GEQGATLDV | En_Gibbs | 1.0 µM | 1/6 |
| GFDLNEYGIS | VIYADGRRKAYADSVK | GNVAGTFDI | En_Gen | 370 pM | 6/6 |
| GFNLNEYGIS | VIYADGRRTFYTDDVK | GEQAGTFDL | En_HC | 84 pM | 6/6 |
| GFDLEELGIS | VIYADGMRTQYIDKVK | GIAGDSFLV | En_Gibbs | not detected | 0/6 |
| GFDLDEYGIS | VIYADGRRTAYADSVK | GNTAGTFDT | En_Gen | 8.3 pM | 6/6 |
| GFDLNEYGIS | VIYADGVRTFYSDSVK | GQSAGTFDA | En_HC | 940 pM | 6/6 |
| GFDFNEYGIS | VIYADGKRTAYADKFK | GGKNAFTDI | En_Gibbs | 160 nM | 1/6 |
| GFNLDEYGIS | VIYADGQRTFYADSVK | GEVAGTFDV | En_HC | 600 pM | 6/6 |
| GFDLNEYGIS | VIYADGRRTFYADSVK | GANAGTFDQ | En_HC | 360 pM | 6/6 |
| GFDLNEYGIS | VIYADGVRTAYSDSVK | GNEAGTFDL | En_Gen | 600 pM | 6/6 |
| GFDLNEYGIS | VIYADGKRTAYADSVK | GENAGTFDT | En_Gen | 180 pM | 6/6 |
| GFDLNEYGIS | VIYADGKRTAYIDSVK | GEIAGTFDV | En_HC | 580 pM | 6/6 |
| GFDLNEYGIS | VIYADGQRTAYSDSVK | GNVAGTFDL | En_Gen | 730 pM | 6/6 |
| GFDLNEYGIS | VIYADGMRTAYVDDVK | GNTAGTFDV | En_Gen | 590 pM | 6/6 |
| GFQLDEQGIS | VIYADGVRCSYAQKVK | GANSGVIDV | En_Gibbs | not detected | 0/6 |
| GITLNEYGIS | VYYSDGRRTFYAPSVK | GRAAVTFDQ | Rand | not detected | 0/6 |
| GFDLEEYGIS | VIYADGKRTAYSDSVK | GNVAGTFDL | En_Gen | 630 pM | 6/6 |
| GFDLNEYGIS | VIYADGRRTQYIDSVK | GEAAGTFDI | En_HC | 1.1 nM | 6/6 |
| GFDLDEYGIS | VIYADGMRTAYSDSVK | GNTAGTFDT | En_Gen | 2.4 nM | 6/6 |
| GFDLDEQGIS | VIYADGRRVGYTDSVK | GTNGSDRTL | En_Gibbs | not detected | 0/6 |
| GFDLNEYGIS | VIYADGQRTAYADSVK | GENAGTFVV | En_Gen | not detected | 0/6 |
| GFNLDEYGIS | VIYADGRRTFYQDSVK | GEVAGTFDT | En_HC | 70 pM | 6/6 |
| GFDLNEYGIS | VIYADGMRTAYVDSVK | GNNAGTFDV | En_Gen | 300 pM | 5/6 |
| GFDLNEYGIS | VIYADGRRTAYADDVK | GETAGTFDI | En_Gen | 670 pM | 6/6 |
| GFDLNEYGIS | VIYADGLRTFYTDSVK | GEVAGTFDV | En_HC | 240 pM | 6/6 |
| GKTLDEYGIS | VIYADGMRTFYANTVK | GEDGGFLNQ | En_Gibbs | not detected | 0/6 |
| GFEIDEYGIS | VIYADGRSRAYADDVK | GNDIGGFDL | En_Gibbs | not detected | 0/6 |
| GFDLNEYGIS | VIYADGRRTYYADSVK | GNLAGTFDQ | En_HC | 330 pM | 6/6 |
| GFDLNEYGIS | VIYADGRRTFYADSVK | GEIGGTFDS | En_HC | 690 pM | 6/6 |
| GFDLNEYGIS | VIYADGRRTAYADSVK | GNVAGTFDA | En_Gen | 1.3 nM | 6/6 |
| GFDLNEYGIS | VIYADGRRTFYADSVK | GKNAGTFVV | En_HC | 2.3 nM | 6/6 |
| GFDLDEYGIS | VIYADGSRTAYSDSVK | GNTAGTFDV | En_Gen | 580 pM | 6/6 |
| GFDLNEYGIS | VIYADGRRTFYSDSVK | GATGGTFDI | En_HC | 490 pM | 6/6 |
| GFGLDEYGIS | VIYADGQRTFYADSVK | GENAGTFLM | En_HC | 58 nM | 3/6 |
| GFKLDEYGIS | VIYADGVRAHYKESVK | GVHGAYVVF | En_Gibbs | not detected | 0/6 |
| GFDLNEYGIS | VIYADGRRTAYADSVK | GNNAGTFDQ | En_Gen | 1.4 nM | 6/6 |
| GFSLNEYGIS | VIYADGTRMAYTNSVK | GLMGFVGGM | En_Gibbs | not detected | 0/6 |
| GKDLDEYGIS | VIYADGTRTAAANTVK | GEIAGTLNV | En_Gibbs | 1.8 nM | 6/6 |
| GFNLDEYGIS | VIYADGHRMFVSNSVK | GENADALFV | En_Gibbs | not detected | 0/6 |
| GQNLDEYGIS | VIYADGMRKWYADNVK | GISSGQVII | En_Gibbs | not detected | 0/6 |
| GFDLNEYGIS | VIYADGRRTAYQDSVK | GQLAGTFDT | En_HC | 160 pM | 6/6 |
| GFDVDEYGIS | VIYADGKRSMYTDKVK | GVIADGMMV | En_Gibbs | 210 nM | 1/6 |
| GFGLDEYGIS | VIYADGSRTEYVQSVK | GMTSVIKFV | En_Gibbs | not detected | 0/6 |
| GFDLNEYGIS | VIYADGQRTAYADSVK | GHVAGTFDV | En_Gen | 2.6 nM | 6/6 |
| GFDLNPYGIS | VIYADGRWTFYGHSVK | GRFAGTNNS | Rand | not detected | 0/6 |
| GFDLNEYGIS | VIYADGKRTAYADNVK | GNVAGTFDM | En_Gen | not detected | 0/6 |

Data: MIT Lincoln Laboratory AlphaSeq set, Li et al. 2023, doi:10.1038/s41467-023-39022-2, as distributed in FLAb.